Among the data in patent US20240360179A1, “STAPLED PEPTIDES AND METHODS THEREOF” (FOG PHARMACEUTICALS, INC., priority 2021, published 2024) are IC50 values, retold here.

Sequences of proteins named here, by UniProt entry; tags and fusion partners are left off.
UniProt P35222, whole entry: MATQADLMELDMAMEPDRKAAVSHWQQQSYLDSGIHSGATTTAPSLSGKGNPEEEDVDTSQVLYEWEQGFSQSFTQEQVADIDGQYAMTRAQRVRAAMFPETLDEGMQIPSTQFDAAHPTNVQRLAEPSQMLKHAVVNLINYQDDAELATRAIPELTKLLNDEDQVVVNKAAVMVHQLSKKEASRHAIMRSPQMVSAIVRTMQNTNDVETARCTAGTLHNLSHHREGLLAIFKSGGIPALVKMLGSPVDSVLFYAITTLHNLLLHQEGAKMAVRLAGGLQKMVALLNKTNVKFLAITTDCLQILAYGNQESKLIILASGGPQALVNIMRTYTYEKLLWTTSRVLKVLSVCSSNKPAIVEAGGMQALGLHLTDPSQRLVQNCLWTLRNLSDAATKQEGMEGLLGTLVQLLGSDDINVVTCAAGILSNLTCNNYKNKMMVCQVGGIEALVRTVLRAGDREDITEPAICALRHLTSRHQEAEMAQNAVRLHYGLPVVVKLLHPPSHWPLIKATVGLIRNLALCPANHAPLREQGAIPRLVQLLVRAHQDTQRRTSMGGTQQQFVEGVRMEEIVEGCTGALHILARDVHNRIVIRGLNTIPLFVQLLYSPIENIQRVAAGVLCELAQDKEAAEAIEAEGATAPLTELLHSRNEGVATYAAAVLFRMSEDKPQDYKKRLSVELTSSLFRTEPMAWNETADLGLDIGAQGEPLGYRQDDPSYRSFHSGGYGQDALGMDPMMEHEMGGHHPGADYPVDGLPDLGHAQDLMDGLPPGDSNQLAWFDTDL

For experiment [1], the target named is T1, full-length B-Catenin (Uniprot ID P35222) (Homo sapiens, UniProt P35222).
T1 construct: 10 nM full-length B-Catenin (Uniprot ID P35222)
Nature of the experiment: biochemical. In kind it is binding. The note with it: beta-Catenin FP IC50 (nM), competition fluorescence polarization.

For experiment [2], the target named is beta-catenin/TCF4 interaction (Homo sapiens, UniProt P35222). Put plainly: cell-based. Also noted: host or cells: HEK293. The note with it: NanoBRET Abs IC50 (uM), absolute IC50.

As for `CC(=O)N1CCC[C@]12CC=CCCCC1(CCCC=CCCCOC(=O)N3CC[C@@]4(C3)NC(=O)[C@H](CCCCNC(=O)CC[C@@H](C(=O)N[C@H](C(N)=O)[C@@H](C)O)NC(=O)[C@H](Cc3csc5ccccc35)NC(=O)[C@H](Cc3ccsc3)NC4=O)NC(=O)[C@H](Cc3ccccc3)NC(=O)[C@H](C)NC(=O)C(C)(C)NC(=O)[C@H](Cc3cccc(C(=O)O)c3)NC(=O)[C@H](CC(=O)O)NC1=O)NC(=O)[C@H](CC(C)(C)C)NC(=O)[C@H](CC(=O)O)NC2=O` (relative stereo) [I-398, Ac-PL3-Asp-Npg-B5-Asp-3COOHF-Aib-Ala-Phe-Lys*3-PyrS2-3Thi-BztA-GlnR*3-Thr-NH2], the IC50 was less than 50 nM in experiment [1] and 1.5 to 3 µM in experiment [2].

As to `CC(=O)N1CCC[C@]12CC=CCCCC1(CCCC=CCCCOC(=O)N3CC[C@@]4(C3)NC(=O)[C@H](CCCCNC(=O)CC[C@@H](C(=O)N[C@H](C(=O)N[C@@H](CO)C(N)=O)C(C)C)NC(=O)[C@H](Cc3csc5ccccc35)NC(=O)[C@H](Cc3ccsc3)NC4=O)NC(=O)[C@H](Cc3ccccc3)NC(=O)[C@H](C)NC(=O)C(C)(C)NC(=O)[C@H](Cc3cccc(C(=O)O)c3)NC(=O)[C@H](CC(=O)O)NC1=O)NC(=O)[C@H](CC(C)(C)C)NC(=O)[C@H](CC(=O)O)NC2=O` (relative stereo) [I-399, Ac-PL3-Asp-Npg-B5-Asp-3COOHF-Aib-Ala-Phe-Lys*3-PyrS2-3Thi-BztA-GlnR*3-Val-Ser-NH2], the IC50 in experiment [1] is less than 50 nM; in experiment [2] it was less than 1.5 µM.

As for `CC(=O)N1CCC[C@]12CC=CCCCC1(CCCC=CCCCOC(=O)N3CC[C@@]4(C3)NC(=O)[C@H](CCCCNC(=O)CC[C@@H](C(=O)NC(C)(C)C(=O)N[C@@H](CO)C(N)=O)NC(=O)[C@H](Cc3csc5ccccc35)NC(=O)[C@H](Cc3ccsc3)NC4=O)NC(=O)[C@H](Cc3ccccc3)NC(=O)[C@H](C)NC(=O)C(C)(C)NC(=O)[C@H](Cc3cccc(C(=O)O)c3)NC(=O)[C@H](CC(=O)O)NC1=O)NC(=O)[C@H](CC(C)(C)C)NC(=O)[C@H](CC(=O)O)NC2=O` (relative stereo) [I-400, Ac-PL3-Asp-Npg-B5-Asp-3COOHF-Aib-Ala-Phe-Lys*3-PyrS2-3Thi-BztA-GlnR*3-Aib-Ser-NH2], the figures for the IC50 in experiment [1] and in experiment [2] were less than 50 nM and 1.5 to 3 µM, respectively.

For the compound `CC(=O)N1CCC[C@]12CC=CCCCC1(CCCC=CCCCOC(=O)N3CC[C@@]4(C3)NC(=O)[C@H](CCCCNC(=O)CC[C@@H](C(=O)N[C@H](C(=O)N[C@@H](CO)C(N)=O)[C@@H](C)O)NC(=O)[C@H](Cc3csc5ccccc35)NC(=O)[C@H](Cc3ccsc3)NC4=O)NC(=O)[C@H](Cc3ccccc3)NC(=O)[C@H](C)NC(=O)C(C)(C)NC(=O)[C@H](Cc3cccc(C(=O)O)c3)NC(=O)[C@H](CC(=O)O)NC1=O)NC(=O)[C@H](CC(C)(C)C)NC(=O)[C@H](CC(=O)O)NC2=O` (relative stereo) [I-401, Ac-PL3-Asp-Npg-B5-Asp-3COOHF-Aib-Ala-Phe-Lys*3-PyrS2-3Thi-BztA-GlnR*3-Thr-Ser-NH2], the values for the IC50 in experiment [1] and in experiment [2] were less than 50 nM and less than 1.5 µM, respectively.

As for `CC(=O)N1CCC[C@]12CC=CCCCC1(CCCC=CCCCOC(=O)N3CC[C@@]4(C3)NC(=O)[C@H](CCCCNC(=O)CC[C@@H](C(=O)N[C@H](C(=O)N[C@@H](C)C(N)=O)[C@@H](C)O)NC(=O)[C@H](Cc3csc5ccccc35)NC(=O)[C@H](Cc3ccsc3)NC4=O)NC(=O)[C@H](Cc3ccccc3)NC(=O)[C@H](C)NC(=O)C(C)(C)NC(=O)[C@H](Cc3cccc(C(=O)O)c3)NC(=O)[C@H](CC(=O)O)NC1=O)NC(=O)[C@H](CC(C)(C)C)NC(=O)[C@H](CC(=O)O)NC2=O` (relative stereo) [I-406, Ac-PL3-Asp-Npg-B5-Asp-3COOHF-Aib-Ala-Phe-Lys*3-PyrS2-3Thi-BztA-GlnR*3-Thr-Ala-NH2], the values for the IC50 in experiment [1] and in experiment [2] were less than 50 nM and less than 1.5 µM, respectively.

Consider `C[C@H](NC(=O)[C@@H]1CCC(=O)NCCCC[C@@H]2NC(=O)[C@H](Cc3ccccc3)NC(=O)[C@H](C)NC(=O)C(C)(C)NC(=O)[C@H](Cc3cccc(C(=O)O)c3)NC(=O)[C@H](CC(=O)O)NC(=O)[C@](C)(NC(=O)[C@@H]3CCCCCC(=O)N4CCC[C@@]4(C)C(=O)N[C@@H](CC(=O)O)C(=O)N3)CCCCCCCCOC(=O)N3CC[C@@](C3)(NC2=O)C(=O)N[C@@H](Cc2ccsc2)C(=O)N[C@@H](Cc2csc3ccccc23)C(=O)N1)C(N)=O` (relative stereo) [I-425, 4penteny1-MePro-Asp-AllylGly-R5-Asp-3COOHF-Aib-Ala-Phe-Lys*3-PyrS2-3Thi-BztA-GlnR*3-Ala-NH2], for which the IC50 in experiment [1] was 50 to 200 nM; in experiment [2], more than 10 µM.

Take `CC(=O)N1CCC[C@]12CC=CCCCC1(CCCC=CCCCOC(=O)N3CC[C@@]4(C3)NC(=O)[C@H](CCCCNC(=O)CC[C@@H](C(=O)N[C@@H](C)C(N)=O)NC(=O)[C@H](Cc3csc5ccccc35)NC(=O)[C@H](Cc3ccsc3)NC4=O)NC(=O)[C@H](Cc3ccccc3)NC(=O)[C@H](C)NC(=O)[C@](C)(CC(C)C)NC(=O)[C@H](Cc3cccc(C(=O)O)c3)NC(=O)[C@H](CC(=O)O)NC1=O)NC(=O)[C@H](CC(C)(C)C)NC(=O)[C@H](CC(=O)O)NC2=O` (relative stereo) [I-432, Ac-PL3-Asp-Npg-B5-Asp-3COOHF-aMeL-Ala-Phe-Lys*3-PyrS2-3Thi-BztA-GlnR*3-Ala-NH2]: the figures for the half-inhibitory concentration (IC50) in experiment [1] and in experiment [2] were less than 50 nM and more than 10 µM, respectively.

Consider `CC(=O)N1CCC[C@]12CC=CCCCC1(CCCC=CCCCOC(=O)N3CC[C@@]4(C3)NC(=O)[C@H](CCCCNC(=O)CC[C@@H](C(=O)N[C@@H](C)C(N)=O)NC(=O)[C@H](Cc3csc5ccccc35)NC(=O)[C@H](Cc3ccsc3)NC4=O)NC(=O)[C@H](Cc3ccccc3)NC(=O)[C@H](C)NC(=O)[C@@](C)(CC(C)C)NC(=O)[C@H](Cc3cccc(C(=O)O)c3)NC(=O)[C@H](CC(=O)O)NC1=O)NC(=O)[C@H](CC(C)(C)C)NC(=O)[C@H](CC(=O)O)NC2=O` (relative stereo) [I-433, Ac-PL3-Asp-Npg-B5-Asp-3COOHF-DaMeL-Ala-Phe-Lys*3-PyrS2-3Thi-BztA-GlnR*3-Ala-NH2], for which the IC50 was less than 50 nM in experiment [1] and 3 to 10 µM in experiment [2].

For the compound `CC(=O)N1CCC[C@]12CC=CCCCC1(CCCC=CCCCOC(=O)N3CC[C@@]4(C3)NC(=O)[C@H](CCCCNC(=O)CC[C@@H](C(=O)N[C@@H](C)C(N)=O)NC(=O)[C@H](Cc3csc5ccccc35)NC(=O)[C@H](Cc3ccsc3)NC4=O)NC(=O)[C@H](Cc3ccccc3)NC(=O)[C@H](C)NC(=O)[C@](C)(C(C)C)NC(=O)[C@H](Cc3cccc(C(=O)O)c3)NC(=O)[C@H](CC(=O)O)NC1=O)NC(=O)[C@H](CC(C)(C)C)NC(=O)[C@H](CC(=O)O)NC2=O` (relative stereo) [I-434, Ac-PL3-Asp-Npg-B5-Asp-3COOHF-aMeV-Ala-Phe-Lys*3-PyrS2-3Thi-BztA-GlnR*3-Ala-NH2], the IC50 in experiment [1] was less than 50 nM; in experiment [2] it was more than 10 µM.

Take `CC(=O)N1CCC[C@]12CC=CCCCC1(CCCC=CCCCOC(=O)N3CC[C@@]4(C3)NC(=O)[C@H](CCCCNC(=O)CC[C@@H](C(=O)N[C@@H](C)C(N)=O)NC(=O)[C@H](Cc3csc5ccccc35)NC(=O)[C@H](Cc3ccsc3)NC4=O)NC(=O)[C@H](Cc3ccccc3)NC(=O)[C@H](C)NC(=O)[C@](C)(CO)NC(=O)[C@H](Cc3cccc(C(=O)O)c3)NC(=O)[C@H](CC(=O)O)NC1=O)NC(=O)[C@H](CC(C)(C)C)NC(=O)[C@H](CC(=O)O)NC2=O` (relative stereo) [I-435, Ac-PL3-Asp-Npg-B5-Asp-3COOHF-aMeS-Ala-Phe-Lys*3-PyrS2-3Thi-BztA-GlnR*3-Ala-NH2]: the 50% inhibitory concentration (IC50) in experiment [1] is less than 50 nM; in experiment [2] it was more than 10 µM.

Take `CC(=O)N1CCC[C@]12CC=CCCCC1(CCCC=CCCCOC(=O)N3CC[C@@]4(C3)NC(=O)[C@H](CCCCNC(=O)CC[C@@H](C(=O)N[C@@H](C)C(N)=O)NC(=O)[C@H](Cc3csc5ccccc35)NC(=O)[C@H](Cc3ccsc3)NC4=O)NC(=O)[C@H](Cc3ccccc3)NC(=O)[C@H](C)NC(=O)[C@](C)(Cc3ccccc3)NC(=O)[C@H](Cc3cccc(C(=O)O)c3)NC(=O)[C@H](CC(=O)O)NC1=O)NC(=O)[C@H](CC(C)(C)C)NC(=O)[C@H](CC(=O)O)NC2=O` (relative stereo) [I-438, Ac-PL3-Asp-Npg-B5-Asp-3COOHF-aMeF-Ala-Phe-Lys*3-PyrS2-3Thi-BztA-GlnR*3-Ala-NH2]: the IC50 in experiment [1] was less than 50 nM; in experiment [2], more than 10 µM.

On to `CC(=O)N1CCC[C@]12CC=CCCCC1(CCCC=CCCCOC(=O)N3CC[C@@]4(C3)NC(=O)[C@H](CCCCNC(=O)CC[C@@H](C(=O)N[C@@H](C)C(N)=O)NC(=O)[C@H](Cc3csc5ccccc35)NC(=O)[C@H](Cc3ccsc3)NC4=O)NC(=O)[C@H](Cc3ccccc3)NC(=O)C(C)(C)NC(=O)C(C)(C)NC(=O)[C@H](Cc3cccc(C(=O)O)c3)NC(=O)[C@H](CC(=O)O)NC1=O)NC(=O)[C@H](CC(C)(C)C)NC(=O)[C@H](CC(=O)O)NC2=O` (relative stereo) [I-439, Ac-PL3-Asp-Npg-B5-Asp-3COOHF-Aib-Aib-Phe-Lys*3-PyrS2-3Thi-BztA-GlnR*3-Ala-NH2], for which the figures for the concentration for half-maximal inhibition (IC50) in experiment [1] and in experiment [2] were less than 50 nM and more than 10 µM, respectively.

In the case of `CC(=O)N1CCC[C@]12CC=CCCCC1(CCCC=CCCCOC(=O)N3CC[C@@]4(C3)NC(=O)[C@H](CCCCNC(=O)CC[C@@H](C(=O)N[C@@H](C)C(N)=O)NC(=O)[C@H](Cc3csc5ccccc35)NC(=O)[C@H](Cc3ccsc3)NC4=O)NC(=O)[C@H](Cc3ccccc3)NC(=O)C3(CC3)NC(=O)C(C)(C)NC(=O)[C@H](Cc3cccc(C(=O)O)c3)NC(=O)[C@H](CC(=O)O)NC1=O)NC(=O)[C@H](CC(C)(C)C)NC(=O)[C@H](CC(=O)O)NC2=O` (relative stereo) [I-440, Ac-PL3-Asp-Npg-B5-Asp-3COOHF-Aib-Cpg-Phe-Lys*3-PyrS2-3Thi-BztA-GlnR*3-Ala-NH2], the half-inhibitory concentration (IC50) is less than 50 nM in experiment [1] and more than 10 µM in experiment [2].
